US20260272960A1, “[…] COMPOUNDS, PREPARATION METHOD AND USE THEREOF” (HC SYNTHETIC PHARMACEUTICAL CO., LTD., priority 2022, published 2026)

Tested on: histamine-contracted isolated ileal smooth muscle of guinea pigs
Test: Antispasmodic effect on histamine-contracted isolated ileal smooth muscle of guinea pigs
Parameters: species or system guinea pig
Settings: x ± s, n = 8
Experimental: The guinea pig was knocked unconscious with a wooden stick, and the abdomen was immediately dissected to separate the ileum about 15 cm in length. The contents of the intestinal segment were flushed with Tyrode's solution and placed in Tyrode's solution at a constant temperature of 37° C. for later use, and oxygen was supplied simultaneously. The experimental intestinal tract (1 cm in length) was cut and placed into 20 ml of Tyrode's solution at a constant temperature of 37° C. with a continuous oxygen supply. One end of the intestine was fixed on the ventilation hook and the other end was connected to the muscle tone transducer and led to the computer interface. The muscle tone value of the ileal smooth muscle was recorded with a BL system. The experiment was carried out after the intestinal segment contraction became stable. […] The operation was repeated 8 times. The antispasmodic percentage was calculated using the following equation.

What does the source list for CN1CCC(=C2c3ccccc3CC(=O)c3sccc32)CC1 [Ketotifen, ketotifen]?
Smooth muscle tone (g) After administration (3 minutes after adding 0.05 mL of compound to histamine-contracted ileum): 1.50 ± 0.48 g; Antispasmodic percentage (%) (against histamine contraction, 3 minutes after adding the compound): 56.01 ± 12.18%
